The target in experiment [1] is SCOC LIR peptide phosphorylated at S12 and S18 (BLI) (human). The experiment in a line: BLI; biotinylated LIR peptide immobilized on streptavidin biosensor, ATG8 in solution; 25 mM Tris pH 7.5, 150 mM NaCl, 0.5 mM TCEP, 0.1% Tween20, 1 mg/ml BSA; 25 °C; Kd from response against concentration. For orientation: BLI is a label-free optical method that tracks binding on a fibre tip over time.

The target of experiment [2] is SCOC pS12/pT15 LIR peptide (human). The experiment is described as above.

As to “LC3B (for BLI) (from UniProt Q9GZQ8 1-120) (natural protein)”, the fold increase in affinity over SCOC WT LIR peptide was 34 fold in experiment [1] and 56 fold in experiment [2].
